Data on one compound can be found in patent publication US9296725B2, “Heterocyclyl pyrimidine analogues as TYK2 inhibitors” (Cellzome Limited, priority 2012, dated 2016).

Chains of the proteins cited; added tags and fusions are not shown.
UniProt P29597, whole entry: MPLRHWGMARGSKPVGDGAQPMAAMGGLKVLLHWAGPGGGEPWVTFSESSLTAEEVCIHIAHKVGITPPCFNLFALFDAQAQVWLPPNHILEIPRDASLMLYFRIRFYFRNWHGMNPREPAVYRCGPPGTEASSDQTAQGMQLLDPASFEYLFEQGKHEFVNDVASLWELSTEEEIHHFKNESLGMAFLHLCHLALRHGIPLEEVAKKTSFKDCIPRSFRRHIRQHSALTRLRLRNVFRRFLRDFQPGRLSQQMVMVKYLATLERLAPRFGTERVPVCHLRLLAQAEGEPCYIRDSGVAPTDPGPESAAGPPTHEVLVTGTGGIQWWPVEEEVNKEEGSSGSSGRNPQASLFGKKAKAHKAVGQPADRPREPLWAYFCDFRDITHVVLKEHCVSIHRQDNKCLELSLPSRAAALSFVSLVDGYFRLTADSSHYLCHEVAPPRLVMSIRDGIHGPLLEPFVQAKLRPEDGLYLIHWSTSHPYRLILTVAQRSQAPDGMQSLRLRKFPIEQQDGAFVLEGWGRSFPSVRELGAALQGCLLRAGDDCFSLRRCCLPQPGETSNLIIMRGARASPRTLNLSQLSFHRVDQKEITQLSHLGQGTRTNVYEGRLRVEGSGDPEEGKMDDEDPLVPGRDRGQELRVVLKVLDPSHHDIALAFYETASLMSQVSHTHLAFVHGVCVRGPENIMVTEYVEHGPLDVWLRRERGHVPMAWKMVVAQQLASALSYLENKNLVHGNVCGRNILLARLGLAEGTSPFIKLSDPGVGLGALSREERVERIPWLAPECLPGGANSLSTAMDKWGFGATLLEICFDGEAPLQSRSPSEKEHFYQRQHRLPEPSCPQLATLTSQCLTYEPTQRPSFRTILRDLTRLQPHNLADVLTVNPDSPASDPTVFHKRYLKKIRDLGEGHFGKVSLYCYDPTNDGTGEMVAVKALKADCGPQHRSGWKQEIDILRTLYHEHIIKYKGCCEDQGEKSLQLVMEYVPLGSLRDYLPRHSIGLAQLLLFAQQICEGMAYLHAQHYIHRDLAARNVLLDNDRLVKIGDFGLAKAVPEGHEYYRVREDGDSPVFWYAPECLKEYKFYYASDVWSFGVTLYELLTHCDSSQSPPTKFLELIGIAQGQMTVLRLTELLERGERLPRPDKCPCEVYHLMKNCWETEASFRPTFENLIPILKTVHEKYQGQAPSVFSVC
UniProt O60674, whole entry: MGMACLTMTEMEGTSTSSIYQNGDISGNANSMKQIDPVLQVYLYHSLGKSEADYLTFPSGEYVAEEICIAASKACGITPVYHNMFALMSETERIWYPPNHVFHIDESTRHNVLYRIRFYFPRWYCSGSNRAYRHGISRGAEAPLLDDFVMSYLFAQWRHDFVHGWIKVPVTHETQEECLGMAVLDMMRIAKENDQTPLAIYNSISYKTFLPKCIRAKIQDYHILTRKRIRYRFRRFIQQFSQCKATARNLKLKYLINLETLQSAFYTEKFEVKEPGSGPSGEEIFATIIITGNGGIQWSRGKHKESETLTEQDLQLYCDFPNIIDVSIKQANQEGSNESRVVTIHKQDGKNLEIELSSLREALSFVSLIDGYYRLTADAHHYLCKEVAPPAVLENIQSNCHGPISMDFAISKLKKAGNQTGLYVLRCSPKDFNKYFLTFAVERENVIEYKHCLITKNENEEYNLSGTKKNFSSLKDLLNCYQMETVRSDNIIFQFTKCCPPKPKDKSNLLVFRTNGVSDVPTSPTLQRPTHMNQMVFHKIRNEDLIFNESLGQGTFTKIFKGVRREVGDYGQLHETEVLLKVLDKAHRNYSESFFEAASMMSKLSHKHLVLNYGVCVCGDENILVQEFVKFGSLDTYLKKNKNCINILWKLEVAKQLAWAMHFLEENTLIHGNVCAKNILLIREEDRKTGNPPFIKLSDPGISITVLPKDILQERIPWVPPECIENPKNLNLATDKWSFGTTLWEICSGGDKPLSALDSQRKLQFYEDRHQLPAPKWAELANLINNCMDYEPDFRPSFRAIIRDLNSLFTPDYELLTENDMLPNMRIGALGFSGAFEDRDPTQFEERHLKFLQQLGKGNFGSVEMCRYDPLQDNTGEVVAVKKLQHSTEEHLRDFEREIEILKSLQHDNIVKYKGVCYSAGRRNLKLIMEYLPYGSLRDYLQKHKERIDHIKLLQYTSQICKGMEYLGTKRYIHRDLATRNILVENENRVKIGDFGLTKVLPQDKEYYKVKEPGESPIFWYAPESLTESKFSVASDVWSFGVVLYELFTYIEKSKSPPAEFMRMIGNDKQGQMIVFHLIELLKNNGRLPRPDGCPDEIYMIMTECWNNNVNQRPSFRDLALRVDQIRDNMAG

Experiment [1] addresses TYK2 (Homo sapiens, UniProt P29597). The experiment in a line: Kinobeads assay, TYK2 (competition binding in mixed Molt4/Ramos cell lysate, dot blot detection). The following applies: read-out: TYK2 Band (Kinobeads assay potency, IC50). The protocol:
(§1) The compounds of the present invention as described in the previous examples were tested in a Kinobeads™ assay as described for ZAP-70 (WO-A 2007/137867). Briefly, test compounds (at various concentrations) and the affinity matrix with the immobilized aminopyrido-pyrimidine ligand 24 were added to cell lysate aliquots and allowed to bind to the proteins in 10 the lysate sample. After the incubation time the beads with captured proteins were separated from the lysate. Bound proteins were then eluted and the presence of TYK2 and JAK2 was detected and quantified using specific antibodies in a dot blot procedure and the Odyssey infrared detection system. Dose response curves for individual kinases were generated and IC50 values calculated. Kinobeads™ assays have been previously described (WO-A 2007/137867; WO-A 2006/134056). […]
(§2) Molt4 cells (ATCC catalogue number CRL-1582) and Ramos cells (ATCC catalogue number CRL-1596) were grown in 1 L Spinner flasks (Integra Biosciences, #182101) in suspension in RPMI 1640 medium (Invitrogen, #21875-034) supplemented with 10% Fetal Bovine Serum (Invitrogen) at a density between 0.15×10^6 and 1.2×10^6 cells/mL. […] The supernatant was transferred again to a fresh 50 mL falcon tube, the protein concentration was determined by a Bradford assay (BioRad) and samples containing 50 mg of protein per aliquot were prepared. […]

For experiment [2], the target named is JAK2 (Homo sapiens, UniProt O60674). As to the kind of experiment: Kinobeads assay, JAK2 (competition binding in mixed Molt4/Ramos cell lysate, dot blot detection). The following applies: read-out: JAK2 Band (Kinobeads assay potency, IC50). The protocol:
as §1, §2

As to `Cn1cc(Nc2ncc(F)c(NCc3cc(S(C)(=O)=O)ccc3F)n2)cn1`, the IC50 in experiment [1] lay in the range of 10 to 100 nM; in experiment [2], 1000 to 10000 nM.
